Laboratory results published in PubChem BioAssay AID1259374 (The Scripps Research Institute Molecular Screening Center, 2018).
The entries are a selection whose mix differs from that of the whole data set. The source made the active and inactive calls. Cut-off read from the data, not from the text of the source: active = inhibition above about 50%; inactive = the rest.

The chains behind the UniProt entries cited, without tags or fusion partners. Where a name states a change or a piece, a line headed by the entry shows the natural chain unless it says otherwise.
UniProt O75030: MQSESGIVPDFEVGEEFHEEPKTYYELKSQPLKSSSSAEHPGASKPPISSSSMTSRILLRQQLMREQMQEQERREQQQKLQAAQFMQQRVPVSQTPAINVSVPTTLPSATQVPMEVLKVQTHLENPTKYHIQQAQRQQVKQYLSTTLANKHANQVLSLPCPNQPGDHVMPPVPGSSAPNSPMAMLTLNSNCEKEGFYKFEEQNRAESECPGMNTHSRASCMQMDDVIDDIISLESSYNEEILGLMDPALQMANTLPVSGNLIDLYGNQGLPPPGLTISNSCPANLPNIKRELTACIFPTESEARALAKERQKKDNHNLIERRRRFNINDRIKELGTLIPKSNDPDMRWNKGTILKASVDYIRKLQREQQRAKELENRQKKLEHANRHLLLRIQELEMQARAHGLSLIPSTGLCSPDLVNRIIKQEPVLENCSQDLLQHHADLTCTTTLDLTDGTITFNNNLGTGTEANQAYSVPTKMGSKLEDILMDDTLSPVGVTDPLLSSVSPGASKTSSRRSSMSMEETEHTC

Biological target: Microphthalmia-associated transcription factor (Homo sapiens) (UniProt O75030)
Assay: MITF inhibitors, primary screen, biochemical, AlphaScreen, human (AID 1259374);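 note: 0% = vehicle wells with protein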
Details: AlphaScreen MITF homodimerization, bead proximity signal; at 2.6 µM; hits give high values

SMILES | inhibition
Cc1cc(NP(=O)(Oc2ccccc2)Oc2ccccc2)no1 | inactive: -11.5%
CCN(CC)C(=O)NP(=O)(Oc1ccccc1)Oc1ccccc1 | inactive: 7.81%
Nc1c([N+](=O)[O-])cc([N+](=O)[O-])c(Nc2ccc(S(N)(=O)=O)cc2)c1[N+](=O)[O-] | inactive: -2.91%
O=C(Cc1ccc(F)cc1)N(Cc1cccnc1)C1CCN(CCc2ccccn2)CC1 | inactive: 2.7%
O=C(COC(=O)c1ccc([N+](=O)[O-])cc1[N+](=O)[O-])c1ccc([N+](=O)[O-])cc1 | inactive: -1.27%
Cc1cc(NP(=O)(/C=C(\Cl)c2ccccc2)/C=C(\Cl)c2ccccc2)n[nH]1 | inactive: 8.15%
COc1cc(NC(=O)COC(=O)C(O)(c2ccccc2)c2ccccc2)cc(OC)c1 | inactive: 4.06%
COc1ccc(CCN2CCC(N(Cc3cccnc3)C(=O)NC(C)C)CC2)cc1 | inactive: 13.8%
O=C(Nc1ccncc1[N+](=O)[O-])c1ccc([N+](=O)[O-])cc1[N+](=O)[O-] | inactive: 3.32%
COc1ccc(NC(=O)c2cc([N+](=O)[O-])cc([N+](=O)[O-])c2)c([N+](=O)[O-])c1 | inactive: 10.2%
CC(C)OP(=O)(OC(C)C)C(=O)c1ccccc1Cl | inactive: 6.78%
CCCCOP(=S)(CC(=O)N(CC)CC)OCCCC | inactive: 1.61%
CC(C)COP(=O)(Nc1ccc(Br)cc1)OCC(C)C | inactive: -4.38%
CCN1C(=O)N(c2ccccc2)P(=S)(OC)c2cc3c(cc21)OCCO3 (stereo unspecified) | inactive: 13.4%
O=C(CF)NC(Sc1ccccc1)C(Cl)(Cl)Cl (stereo unspecified) | inactive: 2.99%
Cc1cc(SC(NC=O)C(Cl)(Cl)Cl)ncn1 (stereo unspecified) | inactive: -1.65%
Cc1sc2nc3n(c(=O)c2c1C)CC(CI)S3 (stereo unspecified) | inactive: -1.7%
O=C(Cc1ccc(F)cc1)N(Cc1ccco1)C1CCN(CCc2cccs2)CC1 | inactive: -4.37%
CC(C)OP(=O)(Nc1nc2ccccc2[nH]1)OC(C)C | inactive: 5.65%
O=[N+]([O-])c1ccc(-c2nnc(SCCCl)o2)cc1 | inactive: -9.2%
CC(C)(C)C(=O)CSc1nc2ccccc2[nH]1 | inactive: 1.34%

SMILES | inhibition
O=[N+]([O-])c1cccc(Nc2ccc([N+](=O)[O-])cc2[N+](=O)[O-])c1 | inactive: 26.5%
CCCOc1ccc(S(=O)(=O)N(CCCl)CCCl)cc1 | inactive: 2.76%
CCOP(=S)(OCC)SCC(=O)NC(C)C(=O)O (stereo unspecified) | inactive: -16.2%
Nc1nonc1OCCOc1nonc1N | inactive: 13.6%
O=C(NNC(=O)c1ccncc1)NP1Oc2ccccc2O1 | inactive: 0.85%
O=[N+]([O-])c1ccc2no[n+]([O-])c2c1 | inactive: -8.28%
O=[N+]([O-])c1cc([N+](=O)[O-])c(Nc2ccccc2)c([N+](=O)[O-])n1 | inactive: 1.89%
CN(C)CCCN(C)Cc1cc2ccccc2o1 | inactive: 2.03%
COC(=O)N(c1ccc(OC)cc1)P1(=S)OCC(C)O1 (stereo unspecified) | inactive: -4.1%
CC(C)NC(=O)NP(=O)(Oc1ccccc1)Oc1ccccc1 | inactive: 8.57%
CCN(CCCl)c1ccc(C=C(C#N)C#N)c(C)c1 | inactive: -5.67%
COP1(=S)N=C2c3ccccc3CN2c2cc(N(C)C)ccc21 (stereo unspecified) | inactive: 17.9%
O=[N+]([O-])c1ccc(/C=C/C=N/Nc2ccc([N+](=O)[O-])cc2[N+](=O)[O-])cc1 | inactive: -13.1%
CC(C)OP(=O)(NC(C)(C)C)C(Cl)Cl (stereo unspecified) | inactive: 0.2%
CC(C)OP(=O)(OC(C)C)C(=O)c1ccc(F)cc1 | inactive: 4.12%
O=[N+]([O-])c1cc([N+](=O)[O-])c2[nH]ncc2c1 | inactive: 9.22%
CCOP(=O)(OCC)C(=O)c1ccc(OC)cc1 | inactive: 8.63%
O=C(Cn1cnc([N+](=O)[O-])n1)NCCO[N+](=O)[O-] | inactive: -10.8%
O=C(c1cccnc1)N(Cc1ccco1)C1CCN(CCc2ccc(Cl)cc2)CC1 | inactive: 1.97%
O=P1(Nc2nc(-c3ccccc3)cs2)C=C(c2ccccc2)OC(c2ccccc2)=C1 | inactive: 39.9%
CCCOP(=O)(OCCC)O/C(C)=C/SC#N | inactive: 13.3%

SMILES | inhibition
ICC1CN=C(Nc2ncccn2)S1 (stereo unspecified) | inactive: -16.7%
CC(=O)N(Cc1cccnc1)C1CCN(CCc2ccccn2)CC1 | inactive: 1.36%
O=[N+]([O-])c1ccc(N/N=C/c2cc3c(cc2[N+](=O)[O-])OCO3)c([N+](=O)[O-])c1 | inactive: -5.81%
O=C(c1cccnc1)N(Cc1ccco1)C1CCN(CCc2cccs2)CC1 | inactive: -0.19%
O=C(Oc1ccc([N+](=O)[O-])cc1[N+](=O)[O-])c1ccc(Cl)cc1[N+](=O)[O-] | inactive: 6.9%
OP1(c2ccccc2)=NC(c2ccccc2)=NC(C(Cl)(Cl)Cl)=N1 (stereo unspecified) | inactive: -6.08%
CCOP(=S)(OCC)C1(C#N)CCCC1 | inactive: 14.5%
CCOP(=O)(OCC)SCC(=O)NCC(=O)O | inactive: 18.4%
CC(C)COP(=O)(Nc1cccc(F)c1)OCC(C)C | inactive: -1.16%
CC1CN(c2ccc([N+](=O)[O-])cc2[N+](=O)[O-])CCN1c1ccc([N+](=O)[O-])cc1[N+](=O)[O-] (stereo unspecified) | inactive: 11.7%
O=C(Nc1nnc(-c2cccc([N+](=O)[O-])c2)s1)c1ccc([N+](=O)[O-])cc1[N+](=O)[O-] | inactive: -6.99%
CCOP(=S)(OCC)SCC(=O)NC(C)C(=O)NC (stereo unspecified) | inactive: -12.5%
COc1ccc(C)cc1NC(=O)N(Cc1ccco1)C1CCN(CCc2ccccn2)CC1 | inactive: 15.9%
Cc1cc(=O)[nH]c(N[N+](=O)[O-])n1 | inactive: -4.69%
CN(C)P1(=O)Nc2ccccc2S1 (stereo unspecified) | inactive: 13.4%
COc1ccc(CCN2CCC(N(Cc3cccnc3)C(C)=O)CC2)cc1 | inactive: -19.4%
COP(=O)(OC)C(NC(=O)c1ccc(C)cc1)=C(Cl)Cl | inactive: 11.2%
Cc1cccc(NP(=O)(c2ccccc2)c2ccccc2)n1 | inactive: -7.53%
O=[N+]([O-])c1ccc(C(O)C(CO)Nc2ccc([N+](=O)[O-])cc2[N+](=O)[O-])cc1 (stereo unspecified) | inactive: 4.58%
